Experimental data from patent US7994326B2 (Northwestern University, priority 2003, dated 2011).

Target: T1, murine iNOS (Mus musculus, UniProt P29477)
T1 construct: made in house; host or cells: E. coli (plasmid pCWiNOS)
Test: NOS enzyme inhibitory assay (hemoglobin capture), iNOS
Format: biochemical
Conditions: Table 1b

SMILES | Ki
Cc1cc(N)nc(C[C@H]2CNC[C@H]2NCCNCc2cccc(Cl)c2)c1 (racemic) [Compound P-49] | 9.48 µM
Cc1cc(N)nc(C[C@H]2CNC[C@@H]2NCCNCc2cccc(Cl)c2)c1 (racemic) [Compound P-55] | 44.1 µM
